Measured affinities in a library of Ab-14 heavy chain variants

Source: Engelhart et al. 2022 (doi:10.1038/s41597-022-01779-4), MIT Lincoln Laboratory and A-Alpha Bio; data file from the FLAb repository.

The target is the same throughout: PDVDLGDISGINAS, from the HR2 region of SARS-CoV-2 spike.

Ab-14 is the parent antibody, in scFv form: VH, then a 15-residue (Gly4Ser)3 linker, then VL. The light chain is unchanged in all variants.
VH: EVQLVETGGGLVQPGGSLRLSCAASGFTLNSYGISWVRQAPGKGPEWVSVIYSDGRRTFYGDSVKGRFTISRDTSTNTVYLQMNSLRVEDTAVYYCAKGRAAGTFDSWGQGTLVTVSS
VL: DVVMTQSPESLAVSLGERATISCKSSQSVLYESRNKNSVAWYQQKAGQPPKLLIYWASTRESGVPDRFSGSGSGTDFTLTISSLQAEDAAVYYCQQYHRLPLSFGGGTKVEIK

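The parent was found by panning a naive human phage display library on the peptide. The library (AAYL49) carries one to three amino acid substitutions per variant, with no insertions or deletions. Affinity was read by AlphaSeq, a pooled yeast mating assay with surface-displayed partners. Mating (16 h, 30 °C) was followed by selection of diploids and sequencing of their barcodes. Scores were corrected for input abundance and mapped to Kd with protein pairs of known affinity run in the same pool. The assay was run in three technical replicates.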

Each variant is given by its three heavy chain CDRs, as the data file delimits them; those of the parent are GFTLNSYGIS, VIYSDGRRTFYGDSVK, GRAAGTFDS. The read-out is the apparent dissociation constant on a log10 scale (nM): the lower, the stronger. Averages over replicates are reported, and they cover detected replicates only. An entry "nd" has no value in the source: the pair was not observed among the diploids in that replicate. This suggests poor binding but is not conclusive. Background: pairings of library AAYL49 with three empty control strains gave a value in 15% of cases (median 4.06, 5th percentile 2.83). Values in that range, when seen in few replicates, are hard to tell from nonspecific mating. For each scFv, signals with the empty controls are counted beside the result.

Variant GFWSNSYGIS / VIYSDGRRTFYGDSVK / GRHAGTFDS gave 4.00, nd, 5.20 (mean 4.60; controls 3 of 9).
Variant GFTLRSYGIS / VIYSIGRRWFYGDSVK / GRAAGTFDS gave 3.30, 3.68, nd (mean 3.49; controls 2 of 9).
Variant PFTLNSYRIS / VIYSDGRRTFKGDSVK / GRAAGTFDS gave 3.49, nd, nd (controls 0 of 9).
Variant GFTLNSYGIS / VIYSDGRRTSYGDSVK / NRAIGTFDS gave nd, nd, nd (controls 0 of 9).
Variant GFTLNFDGIS / VIYSNGRRTFYGDSVK / GRAAGTFDS gave 5.31, nd, nd (controls 0 of 9).
Variant GFTLNSWGIS / IIYSDGRRTFYGDSVK / GRAAVTFDS gave nd, nd, nd (controls 0 of 9).
Variant GFTLNSYGIS / VGYSDGRMTFYGDSVK / LRAAGTFDS gave nd, nd, nd (controls 0 of 9).
Variant GFTLSSYGID / VIYSDGRNTFYGDSVK / GRAAGTFDS gave 5.09, nd, nd (controls 3 of 9).
Variant GFTLKSYGIS / VIYSDWRRTFYGDSVK / GRAAGTVDS gave nd, nd, nd (controls 1 of 9).
Variant GFTLNSYGIS / VIYSDGGRTFYGDSVK / GRFMGTFDS gave 3.56, 2.73, 3.05 (mean 3.11; controls 1 of 9).
Variant GFTCNSEGIS / VIYSDGRRTFYGDSVK / GRAAGTFDS gave nd, nd, nd (controls 1 of 9).
Variant GFTLNSYGIS / VIYSDGRRKFWGDSVK / GRAAGEFDS gave 3.82, nd, nd (controls 0 of 9).
Variant GFTLNSYGIS / VIYSAGRVTFYGDRVK / GRAAGTFDS gave nd, 2.77, nd (controls 0 of 9).
Variant GFQLNSYGIS / VIYSDGRRTFYGDSNK / ARAAGTFDS gave nd, nd, nd (controls 5 of 9).
Variant GFTLSSYGIK / VIYSDGRRQFYGDSVK / GRAAGTFDS gave 3.26, nd, nd (controls 0 of 9).
Variant GFTLNSYGIS / VIYSDGRRTTYGDSVK / GRRAGTFRS gave 4.85, 3.93, 6.40 (mean 5.06; controls 7 of 9).
Variant GFTLQSYGIS / VIYSDGRRTFYGDSLK / GRAAGVFDS gave nd, 4.53, nd (controls 1 of 9).
Variant GFTLNSYGIS / VIYSDGRRAHYGDSVM / GRAAGTFDS gave 0.80, 0.69, 0.81 (mean 0.77; controls 3 of 9).
Variant GFTLNYYGIS / VIYSDGRWTFYGDSVK / QRAAGTFDS gave nd, nd, nd (controls 0 of 9).
Variant GFRLNSYGIS / VLYSDGRRTFYGDSVK / GRAAGTFYS gave nd, 4.95, nd (controls 1 of 9).
Variant GFTLNSYGIS / VIYSDGRRTFYGCSVK / QRAAGCFDS gave nd, nd, nd (controls 0 of 9).
Variant GFTLNSYGIS / VIYSDGCRTFHGDSVK / GRIAGTFDS gave nd, nd, nd (controls 0 of 9).
Variant GFTLNSYGIS / VIPSDGRITFYGDSVK / GRAAGTFDT gave 5.26, nd, 3.41 (mean 4.34; controls 2 of 9).
Variant GFTLNSYGIS / VIYSDGRRTFYGDSVK / GRAMGTFDS gave 0.57, 0.72, 0.80 (mean 0.69; controls 1 of 9).
Variant GFTLNSYGIS / VQYSDGRRTKYGDSVK / GRAAGNFDS gave nd, nd, nd (controls 0 of 9).
Variant GFTLNSYGIS / VIYSDGRRTFYGDSVG / GMAAQTFDS gave nd, nd, nd (controls 0 of 9).
Variant GFTLNSNGIS / VIYWDGRRTFYGDSVK / GRAAGTFDH gave nd, 3.86, 3.45 (mean 3.66; controls 1 of 9).
Variant GFTLNSYGIW / VIYSDGRRTFYGDSVK / GCEAGTFDS gave nd, nd, nd (controls 0 of 9).
Variant QFTLNSYGIS / VIYSDGRRTFYWDSVK / RRAAGTFDS gave nd, nd, nd (controls 2 of 9).
Variant GFFLNSYGIS / VIYSDGRRTFHGDSVK / GRMAGTFDS gave nd, nd, nd (controls 0 of 9).
Variant GFTLNIYGIS / VIYSDGRRTYDGDSVK / GRAAGTFDS gave nd, nd, nd (controls 1 of 9).
Variant GFTLNSYGIQ / VFYSDGRRTFYGDSVK / GRAAGTFDS gave 4.81, 3.42, 4.58 (mean 4.27; controls 4 of 9).
Variant GHTLNSYGIS / VIYSDGRRTFYGDSVK / GRAARTFDS gave 3.68, 2.35, 2.40 (mean 2.81; controls 0 of 9).
Variant GFTLNSYGIS / VIYSDGRRGFYGDSVD / GRAAQTFDS gave nd, nd, nd (controls 3 of 9).
Variant GFVLNSYGIS / VIYYDGRRTFYGWSVK / GRAAGTFDS gave nd, nd, nd (controls 1 of 9).
Variant GFTLNDYGIS / VIYSQGRRTFIGDSVK / GRAAGTFDS gave nd, nd, nd (controls 2 of 9).
Variant NFTLNSTGIS / VIYSDGKRTFYGDSVK / GRAAGTFDS gave nd, nd, nd (controls 0 of 9).

5 of these entries, quoted again:

CDR-H1,CDR-H2,CDR-H3,"log10 Kd, replicates","log10 Kd (nM), mean",control signals
GFTLNSYGIS,VIYSAGRVTFYGDRVK,GRAAGTFDS,"nd, 2.77, nd",2.77,0 of 9
GFVLNSYGIS,VIYYDGRRTFYGWSVK,GRAAGTFDS,"nd, nd, nd",nd,1 of 9
GFTLNIYGIS,VIYSDGRRTYDGDSVK,GRAAGTFDS,"nd, nd, nd",nd,1 of 9
GFTLNSYGIS,VIYSDGRRKFWGDSVK,GRAAGEFDS,"3.82, nd, nd",3.82,0 of 9
GFTLNSWGIS,IIYSDGRRTFYGDSVK,GRAAVTFDS,"nd, nd, nd",nd,0 of 9